These results are taken from ChEMBL document CHEMBL4321790, “Why Some Targets Benefit from beyond Rule of Five Drugs” (J Med Chem, 2019).

The experiment addresses T1, 3-hydroxy-3-methylglutaryl-coenzyme A reductase (Homo sapiens, UniProt P04035).
T1 sequence (P04035 whole entry): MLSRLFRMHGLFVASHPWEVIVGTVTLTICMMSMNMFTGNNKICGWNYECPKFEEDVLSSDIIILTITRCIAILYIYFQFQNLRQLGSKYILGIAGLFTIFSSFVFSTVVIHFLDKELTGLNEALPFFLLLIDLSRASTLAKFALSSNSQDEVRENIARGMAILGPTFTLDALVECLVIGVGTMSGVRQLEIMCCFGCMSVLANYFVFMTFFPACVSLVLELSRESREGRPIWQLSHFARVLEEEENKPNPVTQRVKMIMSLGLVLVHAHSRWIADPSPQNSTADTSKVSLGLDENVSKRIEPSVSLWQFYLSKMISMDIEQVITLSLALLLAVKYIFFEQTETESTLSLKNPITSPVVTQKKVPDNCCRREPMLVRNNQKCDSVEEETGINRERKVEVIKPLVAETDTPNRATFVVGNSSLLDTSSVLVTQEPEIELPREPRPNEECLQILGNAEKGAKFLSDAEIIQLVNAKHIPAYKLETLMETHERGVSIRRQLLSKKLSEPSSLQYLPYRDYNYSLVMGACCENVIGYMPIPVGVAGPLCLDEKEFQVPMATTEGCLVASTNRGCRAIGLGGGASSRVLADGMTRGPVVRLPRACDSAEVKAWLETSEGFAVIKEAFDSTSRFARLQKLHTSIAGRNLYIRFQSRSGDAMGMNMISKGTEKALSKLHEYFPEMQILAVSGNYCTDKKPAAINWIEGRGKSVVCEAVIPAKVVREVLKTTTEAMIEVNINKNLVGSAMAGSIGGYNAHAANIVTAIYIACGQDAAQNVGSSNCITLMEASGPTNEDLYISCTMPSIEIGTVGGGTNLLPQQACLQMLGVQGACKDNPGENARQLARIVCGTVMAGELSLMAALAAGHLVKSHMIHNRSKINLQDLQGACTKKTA
Put plainly: Inhibition of HMG-CoA Reductase (unknown origin).

As a reminder, the Ki is the dissociation constant of the complex between target and ligand, obtained from inhibition or displacement. As for `CC(C)c1c(C(=O)Nc2ccccc2)c(-c2ccccc2)c(-c2ccc(F)cc2)n1CC[C@@H](O)C[C@@H](O)CC(=O)O` [ATORVASTATIN], the Ki is 6.2 nM.
